The entries are a selection whose mix differs from that of the whole data set. Some of these compounds have results that are not shown, active ones among them. Activity calls are given as the source filed them. No stated cut-off is given here; in the data, active means inhibition above about 10% (passing the limit was not always enough); inconclusive means no clear call, values can overlap the other calls.

Protein sequences, listed by entry. Tags and fused reporters are not part of them.
UniProt P9WIQ1, whole entry: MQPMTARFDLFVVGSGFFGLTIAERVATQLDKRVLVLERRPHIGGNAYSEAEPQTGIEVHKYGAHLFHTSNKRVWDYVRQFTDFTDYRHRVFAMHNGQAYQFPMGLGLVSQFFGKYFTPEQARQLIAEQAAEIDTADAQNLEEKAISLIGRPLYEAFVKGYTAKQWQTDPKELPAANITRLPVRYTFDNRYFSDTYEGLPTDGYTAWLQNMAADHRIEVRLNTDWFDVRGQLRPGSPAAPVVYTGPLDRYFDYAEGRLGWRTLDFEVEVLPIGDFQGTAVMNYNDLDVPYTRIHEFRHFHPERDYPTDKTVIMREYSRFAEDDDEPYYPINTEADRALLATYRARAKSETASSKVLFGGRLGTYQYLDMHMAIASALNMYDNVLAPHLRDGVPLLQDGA

A word on the inhibition: it is the drop in the measured response relative to a control, in per cent.

This assay has as its target UDP-galactopyranose mutase (Mycobacterium tuberculosis (strain ATCC 25618 / H37Rv)) (UniProt P9WIQ1). The experiment in a line: blockers of Mtb UDP-galactopyranose mutase – biochemical, fluorescence polarization, single point, primary screen (AID 504406). The conditions noted are these: purified UGM, fluorescence polarization probe displacement; at 10 µM; hits give high values. (In general: Fluorescence polarisation rises when a labelled molecule tumbles more slowly, as on binding a larger partner.)
For `C=CCN1CCN(CCOC(=O)C(O)(c2ccccc2)c2ccccc2)CC1`, the inhibition was inactive: 0.73%. In the case of `O=C(NCC1(N2CCCCC2)CCCCC1)c1cc(F)c(F)cc1Cl`, the inhibition is inactive: -1.52%. As to `Cc1cc(C(=O)NCC2(N3CCCCC3)CCCCC2)ccc1[N+](=O)[O-]`, the inhibition is inactive: 1.16%.

With `CCN1CCCC(OC(=O)C2(O)c3ccccc3C=Cc3ccccc32)C1` (centres undefined), the inhibition is inactive: -1.12%. With `O=C(NCC1(N2CCCCC2)CCCCC1)c1cccc(Br)c1`, the inhibition was inactive: -2.75%.

For the compound `COc1ccc(C(=O)NCC2(N(C)C)CCCCC2)cc1`, the inhibition is inactive: 1.2%. Regarding `Cc1ccccc1C(=O)NCC1(N2CCCCC2)CCCCC1`, the inhibition was inactive: 0.302%. `CN(C)C1CCCC1OC(=O)C(O)(c1ccccc1)c1ccccc1` (centres undefined): the inhibition was inactive: -0.524%. Consider `CN(C)c1ccc(C(=O)NCC2(N(C)C)CCCCC2)cc1`, for which the inhibition was inactive: 1.1%. Turning to `CC(C)N1C(=O)CC2(CCN(CCOC(=O)C(O)(c3ccccc3)c3ccccc3)CC2)C1=O`, the inhibition is inactive: -0.195%. `CCN(CC)CC(C)C(C)OC(=O)C(O)(c1ccccc1)c1ccccc1` (centres undefined): the inhibition was inactive: 1.42%. As to `COc1cc(SC)ccc1C(=O)NCC1(N(C)C)CCCCC1`, the inhibition was inactive: -1.53%.

As for `Cc1ccc(C(=O)NCC2(N3CCCCC3)CCCCC2)cc1`, the inhibition was inactive: -1.13%.

Turning to `O=C(NCC1(N2CCCCC2)CCCCC1)c1cc([N+](=O)[O-])ccc1Cl`, the inhibition is inactive: -2.5%. To `CN1[C@@H]2CC[C@H]1CC(OC(=O)C(O)(c1ccccc1)c1ccccc1)C2` (some centres undefined) belongs inactive: -0.394%; to `COc1ccc(Br)c(C(=O)NCC2(N3CCCCC3)CCCCC2)c1`, inactive: -2.58%; to `CN(C)c1cccc(C(=O)NCC2(N(C)C)CCCCC2)c1`, inactive: 4.75%. Then `CC(C)Oc1ccc(C(=O)NCC2(N(C)C)CCCCC2)cc1`, with inactive: 4.02%; and `O=C(OC1CN2CCC1CC2)C(CO)(c1ccccc1)c1ccccc1` (centres undefined), with inactive: 0.435%. With `COc1cccc(C(=O)NCC2(N3CCCCC3)CCCCC2)c1`, the inhibition was inactive: -0.276%. To `COc1ccc(Cl)cc1C(=O)NCC1(N(C)C)CCCCC1` belongs inactive: -1.34%; to `O=C(NCC1(N2CCCCC2)CCCCC1)c1cccc(Cl)c1`, inactive: -0.688%.

With `CN(C)C1(CNC(=O)c2ccc(Br)cc2)CCCCC1`, the inhibition was inactive: -1.16%. Then `COc1cc(C(=O)NCC2(N(C)C)CCCCC2)c([N+](=O)[O-])cc1OC`, with inactive: -3.6%.
